Data taken from ChEMBL document CHEMBL1136574, “Organic phenyl arsonic acid compounds with potent antileukemic activity” (Bioorg Med Chem Lett, 2003).

Columns and labels:
MOLT-3 = assay: Antileukemic activity against human leukemia MOLT-3(T-lineage ALL) cell line
NALM-6 = assay: Antileukemic activity against human leukemia NALM-6 (B-lineage ALL) cell line; assay type: functional, cell-based
Procedure, shortened: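 Cells treated with compounds in 96-well plates, incubated 48 h at 37 °C; cytotoxicity read by MTT assay; IC50 values calculated by curve fitting.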

Row | SMILES | IC50 (MOLT-3) [µM] | IC50 (NALM-6) [µM]
1 | O=[As](O)(O)c1ccccc1Nc1[nH]cnc2ncnc1-2 | > 100 | > 100
2 | Nc1ccc(/N=N/c2ccc([As](=O)(O)O)cc2)cc1 |  | > 100
3 | O=[As](O)(O)c1ccc(Nc2[nH]cnc3ncnc2-3)cc1 | > 100 | > 100
4 | Nc1ccccc1[As](=O)(O)O |  | > 100
